According to PubChem BioAssay AID504706 (National Center for Advancing Translational Sciences (NCATS), 2011):
This is a selection; strong and weak results do not stand in their true shares. Inconclusive results are not listed. The source made the active and inactive calls. Calls come from the whole dose curve; as a rule, active = well fitted activation curve with a large enough effect; inconclusive = small, poorly fitted or top-dose-only effect; inactive = no such curve, though single readings can be large or run the other way.

assay: qHTS assay for re-activators of p53 using a Luc reporter; details: H1299 p53-A138V BP100-luciferase reporter, luminescence, 24 h; at 92.2 µM (top of the series); note: % of control where 0% means no effect; nearly all actives have a fitted effect of over 45% in size
Excerpt: The p53 tumor suppressor plays a key role in suppression of tumorigenesis and in human carcinogenesis. It is frequently found inactivated in human cancers, mainly by point mutation. These point mutations are found in a wide variety of human cancers and a majority of them affect the DNA binding domain of the protein. The point mutations either alter native p53 conformation or abolish DNA contact. Additionally, cancer cells with p53 mutations are more resistant to chemo-radiation therapies. In order to find activators to reactivate this important protein, a cell-based screen for p53-dependent luciferase-reporter expression was developed. A p53-null H1299 lung cancer cell line was stably co-transfected with a temperature sensitive p53 mutant, p53-A138V, and a p53-responsive BP100-luciferase reporter. This cell model has previously been characterized in a gene chip profiling experiment for p53 activation. […] At assay temperate, 37 deg C, basal reporter expression is very low and after the addition of detection reagent, a luminescent read-out is carried out. […]
5ul of 1000 cells per well are dispensed in all wells except column 4, into white solid-bottom TC-treated Kalypsys plates. […] Plates are incubated for 10 min at ambient room temperature and are then read on the ViewLux (Perkin Elmer) using a clear filter for a luminescent read-out.

Structure (SMILES)	activity change, positive = activation
CCC(=O)N(c1ccccc1)C1(COC)CCN(CCc2cccs2)CC1	inactive: 4.04%
CCC(=O)N(c1ccccc1)C1(COC)CCN(CCn2nnn(CC)c2=O)CC1	inactive: 1.24%
